The results in this text go back to patent publication US20240226232A9, “PROTEIN-BASED THERAPIES FOR OCULAR CONDITIONS” (The Regents of the University of Colorado, A Body Corporate, priority 2021, published 2024).

One data set concerns HRECs. In words: Penetration of P1 and P1-CPP into HRECs, anti-P1 Western blot. In kind it is cell-based, human. The settings on record: 20-hour incubation. How it is done:
A seventh experiment was conducted to determine whether peptain-1 (P1) levels in HRECs were greater after incubating the cells for 20 hours with P1 conjugated to a CPP (P1-CPP) relative to a 20-hour incubation with P1 only.
HREC lysates were prepared using 1×RIPA buffer containing a protease inhibitor cocktail. Protein concentrations of the cell lysates were measured using the BCA method, and 25 μg of protein were used for immunoblotting. P1 levels in cultured HRECs were measured using an anti-P1 antibody after an incubation period. β-actin antibody staining was used as a control for measuring levels of a housekeeping protein and for calculating P1/β-actin density levels.
For orientation: A western blot detects proteins with antibodies after separation by electrophoresis.

Data set [1] concerns Human retinal endothelial cells (HRECs). Put plainly: Peptain-1 level in HRECs after treatment with cytokine mixture and peptide, Western blot. In kind it is cell-based. The settings on record: 200 μg/mL peptide for three hours, then CM 48 hours. The protocol:
Human retinal endothelial cells (“HRECs”) were treated for three hours with 200 μg/mL of either peptain-1 or a scrambled control peptide in serum-free media. The sequence of the first scrambled control peptide was […] (SEQ ID NO: 4), and the sequence of the second scrambled control peptide was […] (SEQ ID NO: 5). All test cells were then treated with a combination of pro-inflammatory cytokines (IFN-γ at 50 U/mL+TNF-α at 20 ng/mL+IL-1β at 20 ng/mL) for 48 hours.
Cell lysates were prepared using 1×RIPA buffer containing a protease inhibitor cocktail. Protein concentrations of the cell lysates were measured using the BCA method, and 25 μg of protein were used for immunoblotting. To measure HREC apoptosis, the cells were immunostained for active (cleaved) caspase-3, specifically, which is a marker for apoptosis. β-actin antibody staining was used as a control for measuring levels of a housekeeping protein and for calculating protein density compared to caspase-3 levels. The Western blot membrane treated with cleaved-caspase-3 antibody was eventually stripped and probed for peptain-1 antibody as well.

On to DRFSVNLDVKHFSPEELKVKV [peptain-1], for which the “level of P1 in cells (density of P1 to β-actin)” value in the data set with HRECs is given as “greater than in the control cells”. For the same sequence, the “density ratio of peptain-1 to β-actin” value in data set [1] is listed as around 2.25.
